Source: PubChem BioAssay AID624141 (Broad Institute, 2012)
This is a selection; strong and weak results do not stand in their true shares. Some salts or complexes appear as unconnected parts, following the source record. Calls of active or inactive are those of the source.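 How the source made its calls: active means spot fluorescence over background with P-value below 7% in all four replicate spots, showing protein binding; inactive means the rest.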

Chains of the proteins cited; added tags and fusions are not shown.
UniProt P01106, whole entry: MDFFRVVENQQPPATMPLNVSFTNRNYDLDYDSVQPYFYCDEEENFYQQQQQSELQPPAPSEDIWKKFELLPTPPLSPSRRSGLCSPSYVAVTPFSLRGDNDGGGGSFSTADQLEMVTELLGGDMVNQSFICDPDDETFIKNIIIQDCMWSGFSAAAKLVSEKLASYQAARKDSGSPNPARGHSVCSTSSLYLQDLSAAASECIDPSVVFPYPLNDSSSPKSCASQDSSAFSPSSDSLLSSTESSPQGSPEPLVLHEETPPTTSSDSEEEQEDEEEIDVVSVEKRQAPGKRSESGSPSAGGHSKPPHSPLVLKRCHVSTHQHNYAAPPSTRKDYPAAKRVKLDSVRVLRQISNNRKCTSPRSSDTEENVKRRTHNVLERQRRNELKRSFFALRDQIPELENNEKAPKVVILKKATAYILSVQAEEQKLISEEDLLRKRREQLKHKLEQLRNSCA

The compounds below were run against Myc proto-oncogene protein (Homo sapiens) (UniProt P01106) (assay: binders of human c-Myc, primary screen, biochemical, small molecule microarray, anti-His fluorescence (AID 624141)). Details: His-c-Myc binding.

SMILES	outcome
CN(C(=O)Cc1ccc(Cl)c(Cl)c1)C1CCCCC1N1CCCC1 (stereo unspecified)	inactive
C/C1=C2N=C(/C=C3N=C(/C(C)=C4\[N-][C@@](C)([C@@H]5N=C1[C@](C)(CCC(=O)NC[C@@H](C)OP(=O)(O)O[C@H]1[C@@H](O)[C@@H](n6cnc7cc(C)c(C)cc76)O[C@@H]1CO)[C@H]5CC(N)=O)[C@@](C)(CC(N)=O)[C@@H]4CCC(N)=O)[C@@](C)(CC(N)=O)[C@@H]\3CCC(N)=O)C(C)(C)[C@@H]/2CCC(N)=O.[C-]#N.[Co+3]	inactive
C=CC1C=C(C)C/C(=N\P(=O)(Oc2ccccc2)Oc2ccccc2)N1Cc1ccc(OC)cc1 (stereo unspecified)	inactive
COc1ccc(CN2/C(=N/P(=O)(Oc3ccccc3)Oc3ccccc3)CC(C)=CC2C)cc1 (stereo unspecified)	inactive
COc1ccc(CN2/C(=N\P(=O)(Oc3ccccc3)Oc3ccccc3)Cc3ccccc3C2C2CC2)cc1 (stereo unspecified)	inactive
C/C1=C2N=C(/C=C3N=C(/C(C)=C4\[N-][C@@](C)([C@@H]5N=C1[C@](C)(CCC(=O)NCC(C)OP(=O)(O)O[C@@H]1[C@H](O)[C@H](n6cnc7cc(C)c(C)cc76)O[C@H]1CO)[C@H]5CC(N)=O)[C@@](C)(CC(N)=O)[C@@H]4CCC(N)=O)[C@@](C)(CC(N)=O)[C@@H]\3CCC(N)=O)C(C)(C)[C@@H]/2CCC(N)=O.[C-]#N.[Co+3] (stereo partly specified)	inactive
